Source: US10449157B2, “Process for producing microcapsules comprising an active component encapsulated, protected and stabilised within a protein shell” (Anabio Technologies Limited, priority 2013, dated 2019)

Assay: Stability trials of free and encapsulated Creatine in water (HPLC)
Conditions: after 1 hour in water at room temperature

## CN(CC(=O)O)C(=N)N.O [commercial Creatine monohydrate, Creatine monohydrate]
  initial Creatine concentration still present: 9%±1.34%
